Assay results: paper PMC6225322, “Development of Kinase Inhibitors via Metal-Catalyzed C–H Arylation of 8-Alkyl-thiazolo[5,4-f]-quinazolin-9-ones Designed by Fragment-Growing Studies” (Molecules : A Journal of Synthetic Chemistry and Natural …, 2018)

By UniProt entry, the sequences of proteins in these tests, tags left out.
UniProt Q00535, whole entry: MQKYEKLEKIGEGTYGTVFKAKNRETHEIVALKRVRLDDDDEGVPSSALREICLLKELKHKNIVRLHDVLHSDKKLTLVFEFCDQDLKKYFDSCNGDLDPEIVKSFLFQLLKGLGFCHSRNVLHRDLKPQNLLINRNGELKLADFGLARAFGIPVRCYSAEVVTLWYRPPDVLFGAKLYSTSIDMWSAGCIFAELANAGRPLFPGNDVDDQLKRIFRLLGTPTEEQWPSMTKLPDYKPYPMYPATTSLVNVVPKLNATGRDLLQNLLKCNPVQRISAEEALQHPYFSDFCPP

Molecular target: T1, CDK5/p25 (Homo sapiens, UniProt Q00535)
T1 construct: made in house
Assay: CDK5/p25 in vitro kinase assay (33P-ATP, histone H1)
Format: biochemical

## COc1ccc2c(c1)[nH]c1c(C)nccc12 [Harmine, reference compound]
  IC50: > 10 µM
